The results in this text go back to patent US20060246555A1, “Degradation of cyclic nitramines” (published 2006).

Chains of the proteins cited; added tags and fusions are not shown.
UniProt P36858, whole entry: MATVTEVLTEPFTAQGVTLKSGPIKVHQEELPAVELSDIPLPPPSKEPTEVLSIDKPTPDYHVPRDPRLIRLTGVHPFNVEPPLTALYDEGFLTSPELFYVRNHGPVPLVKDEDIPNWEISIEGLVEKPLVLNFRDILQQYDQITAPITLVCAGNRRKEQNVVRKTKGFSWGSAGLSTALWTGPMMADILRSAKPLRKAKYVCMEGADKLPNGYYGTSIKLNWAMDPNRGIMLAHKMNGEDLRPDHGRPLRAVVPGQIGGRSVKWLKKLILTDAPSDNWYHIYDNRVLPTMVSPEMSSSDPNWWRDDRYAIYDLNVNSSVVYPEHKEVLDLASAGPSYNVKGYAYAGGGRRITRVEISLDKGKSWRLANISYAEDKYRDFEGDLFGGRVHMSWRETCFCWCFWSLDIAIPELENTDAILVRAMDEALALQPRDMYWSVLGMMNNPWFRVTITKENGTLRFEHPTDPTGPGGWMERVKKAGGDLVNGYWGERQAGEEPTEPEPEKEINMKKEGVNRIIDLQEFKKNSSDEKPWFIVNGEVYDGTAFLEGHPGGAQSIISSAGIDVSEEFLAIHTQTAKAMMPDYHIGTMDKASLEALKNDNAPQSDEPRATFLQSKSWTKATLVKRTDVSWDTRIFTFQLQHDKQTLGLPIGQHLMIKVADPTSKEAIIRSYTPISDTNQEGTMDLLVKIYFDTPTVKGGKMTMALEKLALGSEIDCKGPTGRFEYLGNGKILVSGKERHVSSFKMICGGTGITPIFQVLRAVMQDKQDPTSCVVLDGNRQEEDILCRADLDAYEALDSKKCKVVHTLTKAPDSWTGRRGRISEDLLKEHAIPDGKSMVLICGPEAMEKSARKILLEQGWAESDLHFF

Data set [1] addresses Aspergillus niger NAD(P)H: Nitrate oxidoreductase (EC 1.6.6.2) (Aspergillus niger, UniProt P36858). As to the kind of experiment: Nitrate reductase catalyzed RDX transformation. The protocol: Enzyme preparation and assays. Lyophilized enzyme is suspended in potassium phosphate buffer (50 mM) at pH 7.0 and washed thrice with 2.5 ml of buffer using Biomax-5K membrane centrifuge filter units (Sigma chemicals). The washed enzyme is then suspended in 0.5 ml of buffer and the protein concentration is measured by bicinchoninic acid (BCA) kit (Sigma chemicals) using bovine serum albumin as standard. The native enzyme activity is estimated spectrophotometrically at 340 nm as the rate of oxidation of NADPH in the presence of nitrate.
Nitrate reductase catalyzed RDX transformation is performed under anaerobic conditions in 6 ml glass vials containing one ml of reaction mixture sealed under an atmosphere of argon. […]; 2) RDX and enzyme in buffer (i.e. in the absence of NADPH); and, 3) RDX only in buffer. The samples from liquid and gas phases are withdrawn periodically to analyze for RDX and transformation products as described below. The enzymatic transformation rate of RDX is expressed as μmoles RDX transformed h^−1mg^−1protein.
To study the fate of formamide and hydrazine in the reaction mixture, each chemical (50 μM) is incubated separately with nitrate reductase and NADPH for one hour at pH 7.0 and 30° C. under the same conditions as described above. The residual compounds and their products are analyzed as stated below.
Analytical procedures. RDX is analyzed by a reversed phase-high pressure liquid chromatograph (RP-HPLC) connected to photodiode array (PDA) detector (λ254 nm). […] The MNX and methylenedinitramine are analyzed by a Micromass bench-top single quadrupole mass detector attached to a Hewlett Packard 1100 series HPLC system equipped with a photodiode array detector. […]
Hydrazine is analyzed by a HPLC system equipped with a Waters model 600 pump (Waters Associates, Milford, MA), a 717 plus autosampler, a Hamilton RPX-X200 analytical cation exchange column (250 mm×4.1 mm), a Waters post column reaction module with a Waters reagent manager pump, a Waters model 464 electrochemical detector with a gold-working electrode and a base resistant Ag/AgCl reference electrode. […]

Data set [2] deals with Diaphorase (EC 1.8.1.4) from Clostridium kluyveri. The data set is described as follows: RDX biotransformation assay with diaphorase. The settings on record: for % Carbon recovery: of total carbon mass in the transformed RDX (78 μmole); for % Nitrogen recovery: of total nitrogen mass in the transformed RDX (78 μmole). The protocol:
Enzyme preparation. Diaphorase (BC 1.8.1.4) from Clostridium kluyveri was obtained from Sigma Chemicals, Canada, as a lyophilized powder. The enzyme was suspended in 50 mM potassium phosphate buffer (pH 7.0) and filtered through a Biomax-SK membrane (Sigma Chemicals) before resuspension in the same buffer. The protein concentration was measured by bicinchoninic acid (BCA) kit (Sigma Chemicals) using bovine serum albumin as standard. The native enzyme activity was estimated (as per company guidelines) spectrophotometrically at 340 nn as the rate of oxidation of NADH using 2,6-dichlorophenol-indophenol as the electron acceptor.
Biotransformation Assays. RDX biotransformation assays with diaphorase were performed in 6 ml glass vials under anaerobic conditions (with an atmosphere of argon) at pH 7.0 and 27° C. Each vial contained RDX (100 μM), NADH (150 μM) and 50 μl of the enzyme (0.5 native units) in a final volume of one ml potassium phosphate buffer (50 mM, pH 7.0). Three different controls were prepared. The first control contained RDX, NADH and buffer without enzyme; the second contained RDX, enzyme and buffer without NADH, and the third contained only RDX and buffer. The reaction time was one hour unless stated otherwise. Samples from the liquid and gas phases in the vials were withdrawn periodically to analyze for RDX and the transformed products as described below. RDX transformation activity of enzyme was expressed as μmoles of RDX transformed h^−1mg^−1 protein.
Inhibition with Oxygen. The effect of oxygen on RDX transformation activity of diaphorase was studied by performing the assays under aerobic and anaerobic conditions at pH 7.0 and 27° C. In another experiment, we determined the role of O2 transformation to superoxide radical anion (O2●^−) in the inhibition of RDX biotransformation. This was done by incubating the RDX with diaphorase in the presence of NADH, cytochrome c (100 μM and superoxide dismutase (SOD) (150 μg/ml) as described previously (Anusevicius et al., 1998). The absorption of reduced cytochrome c was monitored at 550 nm.
Preparation ofapoenzyme (Deflavo Enzyme) and its Reconstitution. The deflavo form of diaphorase was prepared as described before (Madigan et al., 1993 and Tedeschi et al., 1995) with some modifications. The holoenzyme was dialyzed for 48 hours at 4° C. against a dialysis solution composed of 100 mM potassium phosphate buffer (pH 7.0), EDTA (0.1 mM), glycerol (10% v/v) and KBr (3 M). The dialysis buffer was changed every 6 hours. The reconstitution of apoenzyme was carried out in ice cold potassium phosphate buffer (pH 7.0) in the presence of glycerol (10% v/v). FMN was added at variable concentrations (0-250 μM) to the apoenzyme preparation. The unbound FMN was removed by washing the enzyme with the same buffer using Biomax-5K membrane centrifuge filter units. […]
Analytical Procedures. RDX was analyzed by a reversed phase-high performance liquid chromatograph (RP-HPLC) connected to photodiode array (PDA) detector (λ254 nm). […] Methylenedinitramine was analyzed by a Micromass™ bench-top single quadrupole mass detector attached to a Hewlett Packard 1100 series HPLC system equipped with a photodiode array detector. […] Methylenedinitramine was detected as its deprotonated molecular mass ion [M−H] at 135 Da and confirmed by comparison with a reference standard (Halasz et al., 2002). […]

A short description of data set [3]: Decomposition of methylenedinitramine in water.
Data set [4] is described as follows: Photolysis of RDX in aqueous solution at 350 nm. Particulars: RDX after 16 h of photolysis at 350 nm. How it is done:
Irradiation Experiments. A Rayonet photoreactor RPR-100 fitted with a merry-go-round apparatus (Southern New England Co, Hamden, Conn.) equipped with sixteen 350 nm lamps were used as light sources. Photolysis was conducted in 20 ml tubes made of quartz. Each tube was charged with a 10 ml of an aqueous solution of RDX (10 mg/L) in the presence and absence of acetone (250 ppm, v/v). Photolysis was carried out in non degassed quartz tubes sealed with teflon coated mininert valves. Controls containing RDX were kept in the dark during the course of the experiment. The temperature of the reactor was maintained at 25° C. by maintaining the apparatus in a cold room at 10° C. during irradiation. Light intensities, λ 350=3.0 10^−6 einstein ml^−1s^−1 (RPR-350 nm lamp tubes emitting >90% of their energy at 350 nm) were measured using ferrioxalate actinometry.
Analytical Procedures. […] The product was detected as its protonated molecular mass ion [M+H].
The cyclic carbinol intermediate (I), its ring cleavage product (IV) and their subsequent hydrolyzed products including methylenedinitramine (VI) and 4-nitro-2,4-diaza-butanal (V) were analyzed as described previously using LC/MS (ES−). […]
Formic acid, NO2— and NO3— were measured using a Hp3D CE instrument model 1600 equipped with a diode array detector. […]

Turning to Methylenedinitramine, the “Concentration of Reactants/metabolites” value came out at 10 µmol in data set [1] (RDX transformation, after 150 minutes of reaction, pH 7.0, 30° C., anaerobic, NADPH) and 9.2 µmol in data set [2] (RDX transformation, pH 7.0, 27° C., anaerobic, NADH). Further, the entries for the “% Carbon recovery” value in data set [1] (of total carbon mass in the transformed RDX (86 μmole)), in data set [2] and in data set [2] (listed as methylenedinitramine) were 3.87%, 4.0% and 4%, respectively. Further, the entries for the “% Nitrogen recovery” value in data set [1] (of total nitrogen mass in the transformed RDX (86 μmole)), in data set [2] and in data set [2] (listed as methylenedinitramine) were 7.75%, 8.0% and 8%, respectively. Also, the stability result in data set [3] (pH 7.0, decomposes into N2O and HCHO) is “quite unstable”. Moreover, the stability in water result in data set [3] (pH 7.0 and 27° C.) is reported as “unstable”. For the same substance, the C-content % in data set [4] stood at 0.9%. In addition, in data set [4], the N-content % came out at 1.9%.
